Data taken from US7148204B2, “Antisense modulation of bcl-x expression” (Isis Pharmaceuticala, Inc., priority 1998, dated 2006).

System: Shionogi tumors
Conditions: 12.5 mg/kg i.p. once daily for 40 days from 1 day postcastration

5′-TCTCCCGGCATGTGCCAT-3′
median time to recurrence of AI tumors postcastration: 31 days
